Source: patent publication US9296711B2, “Substituted isoxazole amide compounds as inhibitors of stearoyl-CoA desaturase 1 (SCD1)” (Hoffman-La Roche Inc., priority 2012, dated 2016)

Amino acid sequences for entries named in this document (tags omitted).
UniProt P13516, whole entry: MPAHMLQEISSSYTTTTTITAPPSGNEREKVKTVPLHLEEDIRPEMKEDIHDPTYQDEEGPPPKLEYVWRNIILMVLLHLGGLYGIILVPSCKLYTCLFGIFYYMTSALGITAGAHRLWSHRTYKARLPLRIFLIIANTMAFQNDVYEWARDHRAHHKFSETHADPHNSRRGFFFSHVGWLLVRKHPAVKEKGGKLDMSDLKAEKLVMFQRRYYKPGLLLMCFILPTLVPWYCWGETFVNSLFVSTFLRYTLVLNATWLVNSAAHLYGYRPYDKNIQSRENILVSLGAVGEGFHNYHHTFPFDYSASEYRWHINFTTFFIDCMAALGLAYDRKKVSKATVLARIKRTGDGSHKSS

Target: SCD1 (Mus musculus, UniProt P13516)
Experiment: SCD assay: release of tritiated water from desaturation of 9,10-3H-stearoyl CoA by mouse liver microsomes
Conditions: read-out: IC50 (in vitro inhibition of SCD1); mouse liver microsomes as SCD source; 300 nM (9,10)3H-stearoyl CoA; 25 minutes at room temperature
Source text: Stearoyl CoA desaturase activity was monitored by a modification of the acyl carrier protein assay described by B. R. Talamo and K. Bloch in Anal. Biochem. 1968, 29, 300-304. The SCD assay monitors the release of tritiated water from the desaturation of 9,10-^3H-stearoyl CoA.
Mouse liver microsomes, prepared from mice fed a high-carbohydrate diet, were a source of the SCD and cyt b5 and cyt b5 reductase, necessary accessory proteins for the coupled reaction. Reaction mixtures for compound titrations contained 50 mM Tris HCl pH 7.5, 100 mM NaCl, 0.165 mg/ml BSA, 2.4% DMSO, 1 mM NADH, 0.03% T-20, and 300 nM (9,10)^3H-stearoyl CoA (Perkin-Elmer). Reactions were initiated upon the addition of 4 ug/ml SCD microsomes. Incubations were terminated after 25 minutes at room temperature with cold 6% TCA. After standing 10 minutes at 4° C., samples were centrifuged 15 minutes at 4000 rpm to pellet precipitated protein. Supernatants were added to microtiter plates containing suspensions of activated charcoal (Darco G-60, Fisher Scientific) and mixed by inversion. […] Supernatants were quantitated in a Perkin Elmer Topcount 384 after solubilization in ScintiSafe Plus 50% (Fisher Scientific).
Inhibition (%) of SCD activity by compounds was calculated according to the following formula: % Inhibition=100*[1−(CPMsample−CPMblank)/(CPMtotal−CPMblank)]

IC50: 0.1 µM
SMILES: NC(=O)c1cc(-c2ccc(COc3ccccc3Cl)cc2)no1
